The values below come from patent US20080248030A1, “Method of Treating Angiogenic Diseases” (Children's Medical Center Corporation, priority 2005, published 2008).

One data set has as its system LLC. Description: Antitumor activity on C57BL/6J mice bearing s.c. LLC. Conditions: 30 mg/kg q.o.d., data not shown.
A short description of another data set: Early mouse development. The note with it: injected into 7 and 17 day-old BALB/c mice.
The subject of the next data set is A2058 human melanoma. As to the kind of experiment: Antitumor activity on SCID mice bearing s.c. A2058 human melanoma. The data set is classed as in vivo. The note with it: s.c. A2058 study. The text has this: Each group consisted of 5 mice.

With “N-(2-lydroxypropyl)methacrylamide (HPMA) copolymer-TNP-470 conjugate [HPMA copolymer-TNP-470]”, the “induction of weight loss” value with LLC is “did not induce weight loss”. In addition, in “Early mouse development”, the “effect on normal development (weight gain)” value was “developed similarly to the control group”. The water solubility result in the data set “Water solubility” is “became soluble”. In addition, the “deaths due to toxicity, weight loss” value in the data set on A2058 human melanoma is “neither deaths due to toxicity nor weight loss”.
